Earlier results, collected in paper PMC6173196 (Journal of immunology (Baltimore, Md. : 1950), 2018).

The chains behind the UniProt entries cited, without tags or fusion partners. Residues count along the entry.
UniProt P01589, 22-240, chain 1 of 3: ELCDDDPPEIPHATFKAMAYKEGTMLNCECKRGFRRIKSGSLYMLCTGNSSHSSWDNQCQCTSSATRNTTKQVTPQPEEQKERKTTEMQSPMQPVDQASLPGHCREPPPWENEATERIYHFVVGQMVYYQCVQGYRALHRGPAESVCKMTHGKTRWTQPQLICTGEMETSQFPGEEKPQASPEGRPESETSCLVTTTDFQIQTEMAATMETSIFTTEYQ
UniProt P60568, 21-153: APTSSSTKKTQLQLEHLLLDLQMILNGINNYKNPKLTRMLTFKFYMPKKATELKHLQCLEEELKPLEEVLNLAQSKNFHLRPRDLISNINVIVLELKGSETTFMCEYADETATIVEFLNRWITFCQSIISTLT

Biological target: IL-2 receptor αβγ (Homo sapiens) (UniProt P01589)
Conditions: cited from earlier work

IL-2 (from UniProt P60568)
Kd: 0.1 nM
